Molecules are shown by their SMILES. The entries are a selection whose mix differs from that of the whole data set. Active and inactive are the calls of the source. The call rests on the fitted dose curve; in most records, active means well fitted inhibition curve with a large enough effect; inconclusive means small, poorly fitted or top-dose-only effect; inactive means flat fitted curve, though single readings scatter.

The values below come from PubChem BioAssay AID602313 (National Center for Advancing Translational Sciences (NCATS), 2012).

This test in a line: qHTS for Inhibitors of Vif-A3F Interactions: qHTS. Further: % of control where 0% means no effect; nearly all actives have a fitted effect of over 65% in size. The settings on record: HeLa A3F-eYFP + Vif (tagged APOBEC3F with the HIV-1 protein that degrades it), YFP fluorescence increase; at 46.1 µM (top of the series). From the text: The recent discovery and characterization of host restriction factors, which provide a potent defense to invading retroviruses, has provided new targets for antiviral drug development. APOBEC3G (A3G) and APOBEC3F (A3F) are potent cytidine deaminases that block HIV-1 replication; HIV-1 expresses the Vif protein, which counteracts A3G and A3F by binding to them and inducing their proteasomal degradation. The Vif-A3G and Vif-A3F interactions provide two potential targets for development of small molecules which can interfere with the ability of Vif to degrade A3G or A3F. […] To identify inhibitors that can interfere with Vif mediated degradation of A3G and A3F, we have developed Hela cell lines that stably express A3G or A3F tagged with eYFP at the C-terminal end (A3G-eYFP or A3F-eYFP, respectively) and Vif. In the absence of an inhibitor, Vif induces degradation of A3G-eYFP and A3F-eYFP, and the cells are not fluorescent. In the presence of an inhibitor, it is expected that Vif will be unable to degrade A3G-eYFP and/or A3F-eYFP, resulting in an increase in yellow fluorescence. In this assays Vif A3F was screened against the Molecular Library Small Molecule Repository (MLSMR). […]
5 uL of 700 cells/well of A3F-YFP cells are dispensed into black, clear bottom plates. […] The plates are incubated overnight at 37 deg C and then read on the TTP Acumen (Ex 488/ Em 500-530).
Background: qHTS replaces the single test concentration by a dilution series.
As for `CCC(=O)N(c1ccccc1)C1(COC)CCN(CCn2nnn(CC)c2=O)CC1`, the activity, negative = active is inactive: 1.07%.

Take `CCC(=O)N(c1ccccc1)C1(COC)CCN(CCc2cccs2)CC1`: the activity, negative = active is inactive: -0.558%.
